Yeast mating assay 1: variants of the scFv Ab-14

Data: MIT Lincoln Laboratory AlphaSeq set, Engelhart et al. 2022, doi:10.1038/s41597-022-01779-4, as distributed in FLAb.

All variants were tested on one target, the spike HR2 peptide PDVDLGDISGINAS (SARS-CoV-2).

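The parent was found by panning a naive human phage display library on the peptide. The library (AAYL49) carries one to three amino acid substitutions per variant, with no insertions or deletions. In AlphaSeq, yeast of one mating type display the scFv and yeast of the other type display the target. After mating in shaken culture at 30 °C for 16 h, diploids were selected and their barcode pairs sequenced. Each replicate has its own calibration line, from reference interactions of the BCL2 family. There are three technical replicates.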

Ab-14 is the parent antibody, in scFv form: VH, then a 15-residue (Gly4Ser)3 linker, then VL. The light chain is unchanged in all variants.
VH: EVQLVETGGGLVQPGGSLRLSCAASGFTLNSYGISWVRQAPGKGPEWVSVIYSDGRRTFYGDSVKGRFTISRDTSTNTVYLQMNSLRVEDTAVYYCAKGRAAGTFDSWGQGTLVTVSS
VL: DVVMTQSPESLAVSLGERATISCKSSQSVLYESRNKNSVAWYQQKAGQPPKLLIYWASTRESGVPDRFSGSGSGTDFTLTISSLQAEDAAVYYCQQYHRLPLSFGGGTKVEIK

The parent's heavy chain CDRs are GFTLNSYGIS, VIYSDGRRTFYGDSVK, GRAAGTFDS; each variant's own CDRs replace them letter for letter.
The read-out is the apparent dissociation constant on a log10 scale (nM): the lower, the stronger.
"ND" marks a missing value. The strain was present, yet no cells mated with the target were sequenced in that replicate, which points to weak or no binding.

| CDR-H1 | CDR-H2 | CDR-H3 | log10 Kd, replicates | empty controls |
|---|---|---|---|---|
| GFTLFSYGIS | VIYSDGRRTFYGDSVY | KRAAGTFDS | 4.35 1.99 1.86 | 0 of 9 |
| GFTLNSYGIS | VIYSDGRRTFYMDSHK | PRAAGTFDS | 3.40 4.26 4.56 | 2 of 9 (4.94) |
| GFTLNSYGIS | VIYSDGRRTFYGDDVK | FRAWGTFDS | ND ND ND | 2 of 9 (3.50) |
| GFTLLSYGIS | VIHSDGRRTFYGDSVK | GRAAGTFIS | ND ND ND | 1 of 9 (3.73) |
| GQTLNSYGIS | VIYSDCYRTFYGDSVK | GRAAGTFDS | ND ND ND | 3 of 9 (3.73) |
| GFTLNSYGPS | VIMSDGRRTFYGDSVK | GRAAGQFDS | 5.05 4.14 4.20 | 1 of 9 (4.75) |
| GFTLNSSGIP | VIYSDGRRTFQGDSVK | GRAAGTFDS | ND ND ND | 1 of 9 (4.53) |
| GFTLNSYGIS | VIPSDGRRTFYGTSVK | FRAAGTFDS | 2.81 3.34 ND | 0 of 9 |
| GFTANSYGRS | GIYSDGRRTFYGDSVK | GRAAGTFDS | ND 4.50 ND | 6 of 9 (4.37) |
| GFTLNMYGQS | VIYSDGRRTFYGDSVK | GRAACTFDS | 5.55 4.87 4.12 | 6 of 9 (3.77) |
| GFTLNSYGIS | VIYSDNRRTFYGDDVK | FRAAGTFDS | ND ND ND | 0 of 9 |
| GFTLNSIGIS | VEYSDGRRTFYGDSVK | GRAAHTFDS | ND ND ND | 0 of 9 |
| GFTLNSYGIS | VIYSDGRRPFYGDSPK | GRAAGAFDS | ND ND ND | 0 of 9 |
| GFTLNSYGIS | VIYSDGRRTFIKDSVK | GEAAGTFDS | 0.51 0.70 0.61 | 1 of 9 (3.44) |
| GFTLNSYGIS | VIYSDGWRTFYGDLFK | GRAAGTFDS | ND ND 5.03 | 1 of 9 (2.86) |
| GFTLNSQGWP | VIYSDGRRTFYGDSVK | GRAAGTFDS | ND ND ND | 0 of 9 |
| GFTLNSYGQN | NIYSDGRRTFYGDSVK | GRAAGTFDS | ND 3.01 5.17 | 0 of 9 |
| GFTLEAYGIS | VIYSDGRRTFYGDSVK | GMAAGTFDS | 1.66 1.38 1.21 | 1 of 9 (4.23) |
| GWALNSYGIS | VIYSDGRRTFYGDSVK | GRAAGTIDS | 4.45 ND 3.73 | 0 of 9 |
| GFGLNSYGIS | VIYSDGRRTFFGDSVK | GRAAGHFDS | ND ND ND | 0 of 9 |
| GFTLNSYGIS | VIYSDGRRKFYGDSVK | GQLAGTFDS | 0.06 0.39 0.14 | 2 of 9 (4.03) |
| GFTLNSYGIR | VIYCDGRRTFYGDSVK | GRAAGTFDS | ND ND ND | 0 of 9 |
| GFERNSYGIS | VIYSDGRRTFYGDSVK | GRAAGTEDS | ND ND ND | 0 of 9 |
| GFCLNSYGIS | VIYSDGCRTFYGKSVK | GRAAGTFDS | ND ND ND | 0 of 9 |
| GFTLNSYGIS | VIYSDYRRTRYGDSVK | GSAAGTFDS | ND ND 5.33 | 1 of 9 (2.51) |
| GFTLNSYGIS | VIQSDGRRTFYGDSVK | HRAAGTFWS | 3.50 ND ND | 0 of 9 |
| GFTLVSYGIS | VIESDGRRTFYGDPVK | GRAAGTFDS | ND ND ND | 0 of 9 |
| GFTTNSYMIS | DIYSDGRRTFYGDSVK | GRAAGTFDS | ND ND 2.98 | 0 of 9 |
| GFVLNSWGYS | VIYSDGRRTFYGDSVK | GRAAGTFDS | ND ND ND | 3 of 9 (4.28) |
| GFTLNSYGRS | VIYSDGRRTFKGDSVK | GRAAGTFFS | 3.97 ND ND | 1 of 9 (5.02) |
| GFTLASYGIS | VIYSDGRRTFKGDSVK | GRATGTFDS | ND ND ND | 0 of 9 |
| GFTLNSYGIS | VIYSDGTRTFYGDSVK | GRAANTFDS | 1.01 1.11 1.13 | 4 of 9 (4.87) |
| GFTLSSYGIS | VIYSDGRPTFYGDSVG | GRAAGTFDS | 2.18 1.15 1.69 | 0 of 9 |
| GFTLNSYGSS | VIYSCGRVTFYGDSVK | GRAAGTFDS | 4.59 4.75 4.75 | 7 of 9 (5.36) |
| GFTVNSYGIS | VIYSDGRRTAYGNSVK | GRAAGTFDS | 0.15 0.51 0.35 | 3 of 9 (4.43) |
| GFTLHSYGIS | VIYSDWRRTFYGDSVK | GREAGTFDS | ND ND ND | 0 of 9 |
| GFTLNSYGIS | VIYSDGRRTFYGDSVK | GHAAGWFDS | 2.90 2.53 2.92 | 3 of 9 (3.65) |
| GFTLNSYGIS | VIYSDGRRTFYGDSVI | HRAAGTFDS | 3.23 ND ND | 0 of 9 |

Top 3 of the variants detected in all replicates, tightest first:

| CDR-H1 | CDR-H2 | CDR-H3 | log10 Kd, replicates | empty controls |
|---|---|---|---|---|
| GFTLNSYGIS | VIYSDGRRKFYGDSVK | GQLAGTFDS | 0.06 0.39 0.14 | 2 of 9 (4.03) |
| GFTVNSYGIS | VIYSDGRRTAYGNSVK | GRAAGTFDS | 0.15 0.51 0.35 | 3 of 9 (4.43) |
| GFTLNSYGIS | VIYSDGRRTFIKDSVK | GEAAGTFDS | 0.51 0.70 0.61 | 1 of 9 (3.44) |

For reference, the parent read 0.65 as the reference entry and 4.11 (one replicate of three) as a member of this library.
Three control strains display no target. For library AAYL49, 15% of the pairings with them gave a signal, with a median of 4.06 and one signal in twenty below 2.83, so weak values seen in few replicates may be background. The control count says in how many pairings with the empty strains this scFv gave a signal, with their mean in brackets.